According to patent publication US20210163580A1:

Target: recombinant human RSPO3 protein (human) (UniProt Q9BXY4)
Test: BLI (Octet, ForteBio); biotinylated RSPO3 on streptavidin sensors

Kd: 976 µM
Substance: Erbitux (antibody)
